{"source": "patent US20220169997", "key": {"[1]": {"system": "PR408: SP(HSA)-PTEN-L-cathepsinB**-HSA-6xHis"}, "[2]": {"system": "PR407: SP(HSA)-PTEN-L-cathepsin B*-HSA-6xHis"}}, "data": [{"substance": "Active CATSB (BioVision #7580-5)", "values": [{"measurement": "in vitro cleavage of the fusion in CHO-3E7 supernatant (0.3 µg/ml CATSB; only at low pH), fraction released as PTEN-L-like fragment, WB with F-1 anti-PTEN", "setting": "[1]", "value": "CATSB cleaved PR407 (SEQ ID NO:131; cDNA SEQ ID NO:159) and PR408 (SEQ ID NO:132; cDNA SEQ ID NO:160) to release a PTEN-L-like fragment at similar amounts (about 20% of total)"}, {"measurement": "in vitro cleavage of the fusion in CHO-3E7 supernatant (0.3 µg/ml CATSB; only at low pH), fraction released as PTEN-L-like fragment, WB with F-1 anti-PTEN", "setting": "[2]", "value": "CATSB cleaved PR407 (SEQ ID NO:131; cDNA SEQ ID NO:159) and PR408 (SEQ ID NO:132; cDNA SEQ ID NO:160) to release a PTEN-L-like fragment at similar amounts (about 20% of total)"}]}]}
